miR-21 reporter: raises the signal of a miR-21 reporter | HeLa miR-21 FLuc reporter, luciferase, 48 h | Potency, µM (doses to about 38.3 µM), without a hit: at the top dose reporter change, positive = more light | 340,000 tested, under 10 active | AID 2288; active = well fitted rising curve with a large enough effect; inconclusive = small, poorly fitted or top-dose-only effect; inactive = no such curve, though single readings can be large or run the other way;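 note: % of control where 0% means no effect; miR-21 action dims this reporter so a rising signal means less miR-21 action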
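Compounds were titrated across several concentrations (up to approximately 40 uM) and incubated 48 hours with HeLa miR-21-FLuc reporter cells (miR-21 target sequence downstream of FLuc, endogenous miR-21). Readout was firefly luciferase luminescence after lytic detection reagent.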
TDP1 cell CPT: DT40-hTDP1 cell growth loss with CPT; Potency, µM (highest dose often 46.2 µM), for the others: at the highest dose activity change, negative = growth inhibition, most hits filed as inhibitors; actives 12% (n = 420,000); chicken DT40 Tdp1-/-;hTDP1 cells + 20 nM CPT, ATP luminescence, 48 h; note: potency is the fitted concentration of half-maximal effect; % is set by controls: 0 for no effect and ±100 for the full control effect; nearly all actives have a fitted effect of over 55% in size
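Chicken DT40 Tdp1-/- cells stably complemented with human TDP1 were seeded at 400 cells/well in medium containing 20 nM camptothecin, exposed to pin-transferred compounds, and grown at 37 °C for at least 48 hr. Viability was read as ATP luminescence.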
uPA generation: inhibitors of cell surface uPA generation | Potency, µM (series often up to 38.3 µM), for inactives: top-dose activity change, negative = inhibition, usual class: inhibitors | actives 0.31% (n = 330,000) | cell surface uPA generation assay, qHTS | AID 540303; active = well fitted inhibition curve with a large enough effect; inconclusive = small, poorly fitted or top-dose-only effect; inactive = no such curve, though single readings can be large or run the other way; tested in mouse RAW 264.7 cells; note: potency is the fitted concentration of half-maximal effect; % is set by controls: 0 for no effect and ±100 for the full control effect; nearly all actives have a fitted effect of over 55% in size
TDP1 block: blocks human tyrosyl-DNA phosphodiesterase 1; Q9NUW8; recombinant TDP1, AlphaScreen DNA substrate cleavage; Potency, µM (doses to about 130 µM), for the others: at the highest dose activity change, negative = inhibition, most hits filed as inhibitors; actives 0.28% (n = 350,000); AID 485290; note: potency is the fitted concentration of half-maximal effect; % is set by controls: 0 for no effect and ±100 for the full control effect; nearly all actives have a fitted effect of over 40% in size
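Compounds were preincubated with Tdp1 (1 nM final) for 15 min at room temperature before substrate (15 nM final) started a 5 min reaction; beads (10 ug/ml final) were then added for 10 min before AlphaScreen detection.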
TDP1 cell noCPT: qHTS for Inhibitors of human tyrosyl-DNA phosphodiesterase 1 (TDP1): qHTS in cells in absence of CPT; DT40 Tdp1-/- hTDP1 cells, no CPT, ATP luminescence, 48 h; actives 15% (n = 420,000); Potency, µM (series often up to 46.2 µM), inactives show at the top dose activity change, negative = growth inhibition, usual class: inhibitors; note: potency is the fitted concentration of half-maximal effect; % is set by controls: 0 for no effect and ±100 for the full control effect; nearly all actives have a fitted effect of over 55% in size
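No-CPT arm: Tdp1-/-;hTDP1 DT40 cells (400/well) plus compounds, incubated ≥48 hr at 37 °C. Readout CellTiter-Glo luminescence.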
The depositor's hits bear a star; ? = inconclusive; . = no result. Only some compounds are listed: those with a hit (about 16% of all), similar ones and a draw of the others. Unless noted, calls come from the whole dose curve; as a rule, active = well fitted curve in the direction sought with a large enough effect; inconclusive = small, poorly fitted or top-dose-only effect, or another doubt; inactive = no such curve, though single readings can be large; an effect the other way counts as inactive or inconclusive.

[1] CC1(c2ccc3c(c2)OCCO3)NC(=O)N(CC(=O)Nc2ccccc2)C1=O (centres undefined)
[2] CCNC(=O)C1(C)CCN(C(=O)c2ccc(C(=O)OC)cc2)C1 (centres undefined)
[3] CC(=O)Oc1ccc(C(=O)Nc2cc(NC(=O)c3ccc(OC(C)=O)cc3)cc(C(=O)NC(C)(C)C)c2)cc1
[4] CN(C(=O)c1cccc(NC(=O)Cc2ccc(NC(=O)C3CCCN(C(=O)C4CCCCC4)C3)cc2)c1)C1CCCCC1 (centres undefined)
[5] CN(C(=O)c1cccc(NC(=O)Cc2cccc(NC(=O)C3CCCN(C(=O)C4CCCC4)C3)c2)c1)C1CCC1 (centres undefined)
Compound	1	2	3	4	5
TDP1 block	2%	.	6%	.	.
uPA generation	4%	.	-1%	-28%	1%
TDP1 cell CPT	-8%	0%	21µM*	?	16µM*
miR-21 reporter	.	.	2%	.	.
TDP1 cell noCPT	-9%	-11%	26µM*	?	?

[6] O=C(CN(C(=O)c1cccc([N+](=O)[O-])c1)C1CCCCC1)Nc1ccc(Cl)c([N+](=O)[O-])c1
[7] CN(C(=O)c1cccc(NC(=O)Cc2ccc(NC(=O)C3CCN(S(=O)(=O)c4cccc([N+](=O)[O-])c4)CC3)cc2)c1)C1CCCC1
[8] Cc1ccc(NC(=O)CN(C)C(=O)c2ccc(Cl)c([N+](=O)[O-])c2)cc1
[9] CN(C(=O)c1ccc(NC(=O)Cc2cccc(NC(=O)C3CCCN(C(=O)C4CCC4)C3)c2)cc1)C1CC1 (centres undefined)
[10] CN(C(=O)c1ccc(NC(=O)Cc2cccc(NC(=O)C3CCCN(C(=O)C4CCCC4)C3)c2)cc1)C1CCCC1 (centres undefined)
Compound	6	7	8	9	10
TDP1 block	3%	.	6%	.	3%
uPA generation	9%	3%	2%	?	13%
TDP1 cell CPT	?	?	?	-18%	21µM*
miR-21 reporter	-2%	.	-1%	.	.
TDP1 cell noCPT	16µM*	?	?	?	?

[11] CN(C(=O)c1cccc(NC(=O)Cc2ccc([N+](=O)[O-])cc2)c1)C1CCCCC1
[12] CC(Nc1ccc2c(c1)OCCO2)C(=O)N1c2ccccc2CC1C (centres undefined)
[13] CN(C(=O)c1cccc(NC(=O)Cc2ccc(NC(=O)C3CCCN(C(=O)C4CCCCC4)C3)cc2)c1)C1CCCC1 (centres undefined)
[14] CN(C(=O)c1cccc(NC(=O)Cc2ccc(NC(=O)C3CCCN(C(=O)C4CCC4)C3)cc2)c1)C1CCCCC1 (centres undefined)
[15] CN(C(=O)c1cccc(NC(=O)Cc2cccc(NC(=O)C3CCCN(C(=O)C4CCC4)C3)c2)c1)C1CCC1 (centres undefined)
Compound	11	12	13	14	15
TDP1 block	5%	11%	.	.	.
uPA generation	?	-5%	9%	-18%	13%
TDP1 cell CPT	21µM*	-15%	?	23µM*	?
miR-21 reporter	.	-11%	.	.	.
TDP1 cell noCPT	15µM*	?	?	?	23µM*

Entries above that contain a Cl atom:
[6] O=C(CN(C(=O)c1cccc([N+](=O)[O-])c1)C1CCCCC1)Nc1ccc(Cl)c([N+](=O)[O-])c1
[8] Cc1ccc(NC(=O)CN(C)C(=O)c2ccc(Cl)c([N+](=O)[O-])c2)cc1
Compound	6	8
TDP1 block	3%	6%
uPA generation	9%	2%
TDP1 cell CPT	?	?
miR-21 reporter	-2%	-1%
TDP1 cell noCPT	16µM*	?

(cont.)
[16] CN(C(=O)c1cccc(NC(=O)Cc2ccc(NC(=O)C3CCCN(C(=O)C4CC4)C3)cc2)c1)C1CCCCC1 (centres undefined)
[17] CN(C(=O)c1ccc(Oc2ccc([N+](=O)[O-])cc2)cc1)C1CCCCC1
[18] CCOc1ccc(CNCc2c(C(=O)O)c(C)n(Cc3c(F)cccc3Cl)c2C)cc1OC
[19] COC(=O)c1ccccc1NC(=O)c1ccc(COc2cc(C)cc(C)c2)o1
[20] COC(=O)c1ccccc1NC(=O)c1ccc(COc2ccc(C)c(C)c2)o1
[21] Cc1cc2nc(-c3cccc(NC(=O)c4ccc(Br)o4)c3C)oc2cc1C
[22] COC(=O)c1cc(OC)c(OC)cc1NC(=O)c1ccc(C)o1
[23] COC(=O)c1cc(OC)c(OC)cc1NC(=O)CCc1ccc(C)o1
Compound	16	17	18	19	20	21	22	23
TDP1 block	.	.	5%	1%	-7%	-8%	8%	7%
uPA generation	-10%	2%	.	3%	13%	?	.	-8%
TDP1 cell CPT	-6%	?	?	?	?	?	15µM*	?
miR-21 reporter	.	19%	-15%	-15%	-6%	14%	-5%	-2%
TDP1 cell noCPT	-7%	23µM*	?	23µM*	13µM*	23µM*	18µM*	?

Assay outcomes: PubChem, National Center for Advancing Translational Sciences (NCATS)
